B1: unnamed (parent)
chain 1: MAEKAGSTFSHLLVPILLLIGWIVGCIIMIYVVFS
chain 2: MENAHTKTVEEVLGHFGVNESTGLSLEQVKKLKERWGSNELPAEEGKTLLELVIEQFEDLLVRILLLAACISFVLAWFEEGEETITAFVEPFVILLILVANAIVGVWQERNAENAIEALKEYEPEMGKVYRQDRKSVQRIKAKDIVPGDIVEIAVGDKVPADIRLTSIKSTTLRVDQSILTGESVSVIKHTDPVPDPRAVNQDKKNMLFSGTNIAAGKAMGVVVATGVNTEIGKIRDEMVATEQERTPLQQKLDEFGEQLSKVISLICIAVWIINIGHFNDPVHGGSWIRGAIYYFKIAVALAVAAIPEGLPAVITTCLALGTRRMAKKNAIVRSLPSVETLGCTSVICSDKTGTLTTNQMSVCRMFILDRVEGDTCSLNEFTITGSTYAPIGEVHKDDKPVNCHQYDGLVELATICALCNDSALDYNEAKGVYEKVGEATETALTCLVEKMNVFDTELKGLSKIERANACNSVIKQLMKKEFTLEFSRDRKSMSVYCTPNKPSRTSMSKMFVKGAPEGVIDRCTHIRVGSTKVPMTSGVKQKIMSVIREWGSGSDTLRCLALATHDNPLRREEMHLEDSANFIKYETNLTFVGCVGMLDPPRIEVASSVKLCRQAGIRVIMITGDNKGTAVAICRRIGIFGQDEDVTSKAFTGREFDELNPSAQRDACLNARCFARVEPSHKSKIVEFLQSFDEITAMTGDGVNDAPALKKAEIGIAMGSGTAVAKTASEMVLADDNFSTIVAAVEEGRAIYNNMKQFIRYLISSNVGEVVCIFLTAALGFPEALIPVQLLWVNLVTDGLPATALGFNPPDLDIMNKPPRNPKEPLISGWLFFRYLAIGCYVGAATVGAAAWWFIAADGGPRVSFYQLSHFLQCKEDNPDFEGVDCAIFESPYPMTMALSVLVTIEMCNALNSLSENQSLLRMPPWENIWLVGSICLSMSLHFLILYVEPLPLIFQITPLNVTQWLMVLKISLPVILMDETLKFVARNYLEPAILE

Variants of: B1
Experiment: FRET efficiency (fluorescence lifetime) in live cells
Conditions: with partner chain of the complex shown; 5 μg/well of each mutant DWORF DNA transfected into a stable cell line expressing GFP–SERCA2a; n = 3; parent: 0.14; read off a plot

Variant	response
chain 1 Y31A	0.14
chain 1 V14A	0.15
chain 1 L18A	0.14
chain 1 C26A	0.14
chain 1 L17A	0.14
chain 1 G25A	0.14

Variants of: B1
Experiment: FRET efficiency (FLT measurement excited at 481 nm) in live cells
Conditions: with partner chain of the complex shown; 5 μg/well of each double-mutant DWORF DNA transfected into a stable cell line expressing GFP–SERCA2a; n = 3; parent: 0.14; read off a plot

Variant	response
chain 1 V14A Y31A	0.14

Source: paper PMC7988493
